These are literature values, as cited in patent publication US20240207217A1, “IMPROVED TREATMENT METHODS FOR CABAZITAXEL” (ORBICULAR PHARMACEUTICAL TECHNOLOGIES PRIVATE LIMITED, priority 2020, published 2024).

One data set has as its system complement. The note with it: alone, at equivalent concentrations.
The conditions of data set [1]: 3-hour paclitaxel infusion at 175 mg/m^2; average.

As for “polyoxyethylated castor oil [Cremophor EL]”, the “Complement activation compared with paclitaxel/Cremophor EL” value in the data set with complement is “to the same extent”. Besides, the “Maximal serum concentration of Cremophor EL” value in data set [1] is given as 3 mg/mL.
